Source: patent publication US20240383913A1, “THIOPHENE RING COMPOUND, PREPARATION METHOD THEREFOR AND APPLICATION THEREOF” (CENTER FOR EXCELLENCE IN MOLECULAR CELL SCIENCE, CHINESE …, priority 2021, published 2024)

Amino acid sequences for entries named in this document (tags omitted).
UniProt P28223, whole entry: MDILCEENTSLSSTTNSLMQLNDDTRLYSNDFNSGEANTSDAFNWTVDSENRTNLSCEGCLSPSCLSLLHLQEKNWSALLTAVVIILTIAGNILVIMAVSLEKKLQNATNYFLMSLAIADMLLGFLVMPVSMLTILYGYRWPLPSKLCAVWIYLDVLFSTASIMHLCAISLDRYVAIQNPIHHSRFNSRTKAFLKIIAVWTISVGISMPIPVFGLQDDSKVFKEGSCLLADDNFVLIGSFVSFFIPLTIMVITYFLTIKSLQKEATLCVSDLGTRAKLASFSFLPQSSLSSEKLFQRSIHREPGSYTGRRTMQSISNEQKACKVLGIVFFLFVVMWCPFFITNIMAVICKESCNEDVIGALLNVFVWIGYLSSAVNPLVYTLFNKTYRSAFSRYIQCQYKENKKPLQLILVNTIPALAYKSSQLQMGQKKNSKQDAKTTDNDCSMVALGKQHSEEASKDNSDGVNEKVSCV

What was measured:
5-HT2A receptor [1] = biological target: T1, 5-HT2A receptor (Homo sapiens (Human), UniProt P28223); experiment: 5-HT2A receptor Gαq BRET (G protein trimer dissociation); format: cell-based;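 further: cells transfected with 5-HT2A receptor, Gαq-Rluc, Gβ3 and Gγ9-GFP, BRET read with coelenterazine 400a (5 µM) across a compound dilution series in duplicate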
5-HT2A receptor [2] = biological target: T1, 5-HT2A receptor; experiment: Affinity for 5-HT2A receptors, radioligand competition with [3H]-ketanserin; format: binding; conditions: 293T membrane transiently expressing 5-HT2A
5-HT2A receptor [3] = biological target: T1, 5-HT2A receptor; experiment: 5-HT2A receptor β-arrestin2 BRET (recruitment); format: cell-based;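 further: cells co-expressing Rluc-tagged 5-HT2A receptor, GRK2 and GFP2-tagged β-arrestin2, read by BRET with coelenterazine 400a (5 µM) across graded drug concentrations in duplicate, signal reflecting β-arrestin2 membrane recruitment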

Row | SMILES | EC50 (5-HT2A receptor [1]) | Emax (5-HT2A receptor [1]; read-out: Gαq BRET (Emax %)) | Ki (5-HT2A receptor [2]) | Emax (5-HT2A receptor [3]; 5-HT2A receptor, β-arrestin2 pathway) | EC50 (5-HT2A receptor [3]; 5-HT2A receptor, β-arrestin2 pathway, read-out: β-arrestin2 BRET EC50) | EC50 (5-HT2A receptor [3])
1 | c1cc2c3c(csc3c1)CC1CN(CC3CC3)CCN21 (centres unmarked) [Compound I-4, 8-(Cyclopropylmethyl)-6,6a,7,8,9,10-Hexahydropyrazino[1,2-a]Thieno [4,3,2-De]Quinoline] | 1380 nM | 50% | 4410 nM | 34.1% | 3940 nM | 
2 | O=C(CN1CCN2c3cccc4scc(c34)CC2C1)c1ccc(F)cc1 (centres unmarked) [Compound I-10, 1-(4-Fluorophenyl)-2-(6a,7,9,10-Tetrahydropyrazino[1,2-a]Thieno [4,3,2-De]Quinolin-8 (6H)-Yl) Ethan-1-One] | 14.2 nM |  | 1490 nM |  |  | 394 nM
